Test results reported in US9415067B2, “Genetic test for liver copper accumulation in dogs and low copper pet diet” (Mars, Inc., priority 2009, dated 2016).

Experiment: Pharmacokinetic study of oral zinc gluconate, plasma zinc by atomic absorption spectrometry
Format: in vivo, dog
Settings: from both dogs
Method: Two unrelated nine-year old, healthy Labrador Retrievers (1 female and 1 male) were used in a pharmacokinetic study. Food was withheld for a 12-hour period prior to oral administration of zinc, and during the initial 6-hour testing period. Water was freely available. Oral zinc gluconate was administered at a dose of 10 mg/kg in dog 1, and at a dose of 5 mg/kg in dog 2. Heparinized blood samples (4 ml) were collected from the jugular vein before dosing (time 0) and 15, 30, 45, 60, 90, 120 minutes, and 4, 8, 12 and 24 hours after application of the drug. Plasma was stored at −20° C. until analysis for zinc using atomic absorption spectrometry.
Pharmacokinetic parameters (WinNonlin 4.0.1. (Pharsight Corporation, 800 West El Camino Real, Mountain View, Calif., USA) and statistical analysis (SPSS 11.0 for windows, 2001, SPSS Inc., Chicago, Ill., USA) were calculated by use of commercially available software packages. Due to small group sizes a non-parametric statistical test was used for comparison between groups. A Mann-Whitney test was used to detect a difference between hepatic copper concentrations before and after treatment with diet and zinc-gluconate (group-1) at two control examinations (recheck-1 and recheck-2), and after treatment with diet and placebo (group-2) at both control examinations. […]

For zinc gluconate, the “calculated half-life of zinc t½” value was 15.1 h.
